KCNH2 3.1 block – qHTS for Inhibitors of KCHN2 3.1: Mutant qHTS; Potassium voltage-gated channel subfamily H member 2, brain isoform KCNH2 3.1 (human); U2OS KCNH2 3.1, thallium flux FluxOr; stronger effect = lower value; activity change, % (tested at about 1.8 µM); 340,000 compounds, 0.95% hits; AID 720553, 2013;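 active means maximum activity change below -70%; inconclusive means maximum activity change from -70% to -50%; inactive means maximum activity change above -50%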;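 further: thallium influx rate constant from kinetic fluorescence after stimulation buffer; on the % scale 0 is the no-effect control and ±100 the full control effect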
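FluxOr-based Tl+ influx in U2OS cells transduced with KCNH2 3.1 virus; rate constants normalized to DMSO controls.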
KCNH2 WT inh – qHTS for Inhibitors of KCHN2 3.1: Wildtype qHTS; activity change, % at 1.84 µM; 340,000 compounds, 0.37% hits; U2OS, BacMam KCNH2, thallium flux FluxOr; stronger effect = lower value; AID 720551, 2013; Voltage-gated inwardly rectifying potassium channel KCNH2 (Homo sapiens), Q12809;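 active means maximum activity change below -70%; inconclusive means maximum activity change between -70% and -50%; inactive means maximum activity change above -50%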; further: on the % scale 0 is the no-effect control and ±100 the full control effect
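U2OS cells transduced with wild-type KCNH2 virus are loaded with FluxOr dye for 45 min, and thallium flux is measured in kinetic reads before and after stimulation buffer. Rate constants are normalized to DMSO controls.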
CCT chaperon mod – High-Throughput Screening for Modulators of Cytosolic Chaperonin Activity; purified chaperonin ATPase assay, HTRF ADP detection, 30 min; 360,000 compounds, 0.3% hits; activity change, % (test concentration not listed), hits read low; in the data active means activity change below about -30%; further: on the % scale 0 is the no-effect control and ±100 the full control effect
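Enzyme 40 or 20 nM (batch-dependent) in Tris pH 7.4/KCl/MgCl2/DTT; cpd 76 uM single point; ATP 10 uM; 30 min 37 °C; Transcreener ADP HTRF detection, 30 min RT; ratio 665/615.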
Rango-impB inh – qHTS Assay for Inhibitors of Rango (Ran-regulated importin-beta cargo) - Importin beta complex formation; 340,000 compounds, 0.031% hits; Importin subunit beta-1 (Homo sapiens), Q14974; Potency, µM (highest dose often 92.2 µM), for inactives: at the highest dose inhibition of complex formation; Rango CFP/YFP FRET sensor + importin beta, 45 min;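 further: potency means the concentration at half of the fitted maximal effect; 0% = DMSO wells and 100% = buffer wells lacking importin beta; nearly all actives have a fitted effect of over 15% in size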
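Inhibition scored from the CFP 486 nm/YFP 530 nm FRET ratio 45 min after adding 0.125 microM importin beta to 50 nM Rango biosensor preincubated 5 min with compound (room temperature, PBS with DTT, Tween-20, BSA). No-importin wells as positive control.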
Rango dissoc inh – qHTS Assay for Inhibitors of RanGTP induced Rango (Ran-regulated importin-beta cargo) - Importin beta complex dissociation. Snurportin-1 (Homo sapiens) + GTP-binding nuclear protein Ran (Homo sapiens) + Importin …. Potency, µM (series often up to 46.1 µM), inactives show at the highest dose activity change, negative = inhibition. 340,000 compounds, 0.071% hits. AID 540253, 2011. Biochemical FRET Rango-importin beta, RanGTP-induced dissociation; further: potency means the concentration at half of the fitted maximal effect; % of control where 0% means no effect; nearly all actives have a fitted effect of over 45% in size
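Quantitative HTS using a FRET biosensor: 0.1 uM Rango, 0.25 uM importin beta, 0.6 uM Ran, 2 mM GTP, 0.2 uM RCC1 final, PBS with DTT, Tween-20 and BSA. Post-read taken 45 min after Ran addition.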
MmCpn inh – Inhibitors of TCP-1 ring complex (TRiC) of Methanococcus maripaludis (MmCpn): qHTS; AID 504842, 2011; 330,000 compounds, 0.031% hits; purified Mm-Cpn ATPase, ADP Transcreener TR-FRET; Potency, µM (doses to about 76.9 µM), inactives show top-dose activity, negative = inhibition, hits mostly inhibitors; active means well fitted inhibition curve with a large enough effect; inconclusive means small, poorly fitted or top-dose-only effect; further: potency means the concentration at half of the fitted maximal effect; on the % scale 0 is the no-effect control and ±100 the full control effect; nearly all actives have a fitted effect of over 80% in size
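Eu-cryptate anti-ADP/ADP-d2 competition gives a ratio inversely related to ADP. Enzyme at 25 nM was pre-exposed to compound for 10 min, then given 10 uM ATP for 30 min, 37°C throughout.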
Numbers without * were called inactive; ? = inconclusive; . = not tested or not shown. The list is not random: actives were taken first. Their share in the collection is about 1.4%. Unless noted, the call rests on the fitted dose curve.

The chains behind the UniProt entries cited, without tags or fusion partners.
Importin subunit beta-1 (Homo sapiens), Q14974, UniProt Q14974, whole entry, looked up: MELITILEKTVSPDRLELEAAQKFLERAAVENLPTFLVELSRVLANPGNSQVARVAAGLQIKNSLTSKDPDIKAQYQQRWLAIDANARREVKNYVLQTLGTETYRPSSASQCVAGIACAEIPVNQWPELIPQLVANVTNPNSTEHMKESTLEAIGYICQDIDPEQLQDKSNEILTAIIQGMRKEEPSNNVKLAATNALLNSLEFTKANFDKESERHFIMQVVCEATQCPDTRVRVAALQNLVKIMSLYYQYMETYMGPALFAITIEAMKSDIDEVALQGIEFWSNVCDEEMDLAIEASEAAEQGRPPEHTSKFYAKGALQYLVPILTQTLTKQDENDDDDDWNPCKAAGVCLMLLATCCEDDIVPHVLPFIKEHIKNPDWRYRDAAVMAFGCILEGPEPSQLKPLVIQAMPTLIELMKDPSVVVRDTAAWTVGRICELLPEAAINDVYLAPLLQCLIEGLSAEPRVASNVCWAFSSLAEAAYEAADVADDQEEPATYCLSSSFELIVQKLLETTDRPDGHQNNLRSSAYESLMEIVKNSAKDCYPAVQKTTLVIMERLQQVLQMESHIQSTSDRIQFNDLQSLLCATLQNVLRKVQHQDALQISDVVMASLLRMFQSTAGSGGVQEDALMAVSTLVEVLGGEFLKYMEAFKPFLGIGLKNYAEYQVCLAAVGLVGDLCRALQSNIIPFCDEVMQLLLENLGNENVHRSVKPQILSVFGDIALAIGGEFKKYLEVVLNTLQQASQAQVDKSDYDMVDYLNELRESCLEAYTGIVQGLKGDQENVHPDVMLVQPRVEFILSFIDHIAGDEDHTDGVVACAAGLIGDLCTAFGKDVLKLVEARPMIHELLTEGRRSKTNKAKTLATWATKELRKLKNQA

1. CCN(CC)CCCn1c2c(c(SCC(=O)Nc3nc(C)cs3)nc1=O)CCC2
2. O=C(COC(=O)c1ccc(Cl)c(S(=O)(=O)N2CCN(c3ccc(F)cc3)CC2)c1)Nc1cccc(Cl)c1
3. O=C(COC(=O)c1ccc(Cl)c(S(=O)(=O)N2CCOCC2)c1)Nc1ccc2[nH]c(=O)[nH]c2c1
4. O=C(O)CCNc1cc(N2CCN(C(=O)c3ccco3)CC2)c2noc3c2c1C(=O)c1ccccc1-3
5. CCN1CCN(c2cc(N3CCN(C(=O)c4ccco4)CC3)c3c4c(onc24)-c2ccccc2C3=O)CC1
6. COc1ccc(NS(=O)(=O)c2ccc(-c3cnc(C4CC4)o3)cc2)cc1OC
7. COc1ccccc1NS(=O)(=O)c1ccc(-c2cnc(C3CC3)o2)cc1
8. CC1CCc2c(C(=O)Nc3ccc(N4CCOCC4)cc3)csc2C1 (centres undefined)
Screen / compound no.	1	2	3	4	5	6	7	8
KCNH2 3.1 block	0	-82*	0	-1	-4	-7	-5	21
KCNH2 WT inh	6	-16	4	5	-2	9	1	2
CCT chaperon mod	-2	0	2	2	-1	-66*	-77*	2
Rango-impB inh	-4%	2%	0%	?	33µM*	0%	5%	2%
Rango dissoc inh	0%	2%	8%	-7%	?	-18%	30%	-2%
MmCpn inh	-2%	-2%	-12%	?	-12%	1%	1%	1%

Part of the list above, limited to KCNH2 3.1 block, MmCpn inh and CCT chaperon mod:
nr | compound | KCNH2 3.1 block | MmCpn inh | CCT chaperon mod
2 | O=C(COC(=O)c1ccc(Cl)c(S(=O)(=O)N2CCN(c3ccc(F)cc3)CC2)c1)Nc1cccc(Cl)c1 | -82* | -2% | 0
3 | O=C(COC(=O)c1ccc(Cl)c(S(=O)(=O)N2CCOCC2)c1)Nc1ccc2[nH]c(=O)[nH]c2c1 | 0 | -12% | 2
4 | O=C(O)CCNc1cc(N2CCN(C(=O)c3ccco3)CC2)c2noc3c2c1C(=O)c1ccccc1-3 | -1 | ? | 2

New compounds follow:
9. CCOC(=O)c1c(C)[nH]c(C)c1S(=O)(=O)N(C)Cc1ccco1
10. CCOC(=O)c1c(C)[nH]c(C)c1S(=O)(=O)NC(C)Cc1ccco1 (centres undefined)
11. Cc1c(Cl)sn(-c2ccc(Cl)cc2)c1=O
12. CC(=O)NN1C(=O)c2ccccc2NC1c1ccoc1 (centres undefined)
13. O=C(COC(=O)/C=C/c1ccccc1Cl)NCCc1ccc(Cl)cc1Cl
14. O=C(NC(Cc1ccccc1)C(=O)O)/C(=C\c1ccc(Cl)cc1)NC(=O)c1ccccc1 (centres undefined)
15. O=C(c1cnn2c(C(F)F)cc(C3CC3)nc12)N1CCc2ccccc2C1
16. O=C(c1cnn2c(C(F)F)cc(C3CC3)nc12)N1CCCC1
Screen / compound no.	9	10	11	12	13	14	15	16
KCNH2 3.1 block	17	-80*	-16	-6	5	-14	-21	-99*
KCNH2 WT inh	2	5	2	-26	-2	-92*	0	-3
CCT chaperon mod	1	-25	-19	0	-39*	0	1	1
Rango-impB inh	-1%	2%	1%	-5%	-1%	-2%	-1%	-2%
Rango dissoc inh	5%	1%	-1%	-7%	0%	-6%	-19%	13%
MmCpn inh	0%	-5%	2%	-3%	2%	0%	0%	-1%

17. Cc1ccc(NCc2nnc(SC(C)C(=O)N/N=C/c3ccc(C)o3)n2-c2ccccc2)cc1 (centres undefined)
18. CCCc1nc(SCC(=O)N2CCN(c3ccccc3)CC2)c2c(=O)n(C)c(=O)n(C)c2n1
19. Cc1ccccc1-c1nc(SCc2cccnc2)c2c(=O)n(C)c(=O)n(C)c2n1
20. CC(C)c1nc(SCC(=O)N2CCN(c3ccccc3)CC2)c2c(=O)n(C)c(=O)n(C)c2n1
21. CCCc1nc(SCc2cccnc2)c2c(=O)n(C)c(=O)n(C)c2n1
22. Cn1c(=O)c2c(SCC(=O)N3CCOCC3)nc(-c3ccccc3Cl)nc2n(C)c1=O
23. C=CCNc1ncnc2sc(SC)nc12
24. COc1ccc(C2c3[nH]c4ccccc4c3CCN2Cc2cccn2-c2ncccn2)cc1C (centres undefined)
Screen / compound no.	17	18	19	20	21	22	23	24
KCNH2 3.1 block	10	0	-5	8	-6	2	-5	-79*
KCNH2 WT inh	7	-10	-256*	3	14	-2	-16	?
CCT chaperon mod	-1	-39*	0	0	0	-30*	-1	1
Rango-impB inh	0%	-4%	-1%	0%	3%	0%	0%	?
Rango dissoc inh	13%	24%	13%	3%	0%	-12%	0%	-27%
MmCpn inh	2%	0%	2%	1%	1%	1%	-17%	-7%

25. CCCCCCCCN1C(=O)[C@H](CC(=O)NCc2ccc(OC)c(OC)c2)C[C@@]2(C(=O)OCC)CCCC=C12
26. CCOC(=O)C1=C(C)N=C2c3ccccc3C(=O)C2C1c1ccc(Cl)cc1 (centres undefined)
27. CC1(C)CC(=O)C2=C(C1)N=C1c3ccccc3C(=O)C1C2c1ccc(Cl)cc1 (centres undefined)
28. Cc1ccc(N2CC(C(=O)Nc3cccc(C(=O)NC4CC4)c3)CC2=O)cc1 (centres undefined)
29. CC1CCCN(C(C(=O)Nc2ccc3c(c2)OCO3)c2ccccc2)C1 (centres undefined)
30. CC1CCN(C(C(=O)Nc2ccc3c(c2)OCO3)c2ccccc2)CC1 (centres undefined)
31. COc1cccc(CC2(CO)CCCN(Cc3c(C)cc(C)cc3-n3cccn3)C2)c1 (centres undefined)
32. COc1cccc(CC2(CO)CCCN(Cc3[nH]c4ccc(C)cc4c3C)C2)c1 (centres undefined)
Screen / compound no.	25	26	27	28	29	30	31	32
KCNH2 3.1 block	.	-105*	-33	-4	12	-7	-102*	-99*
KCNH2 WT inh	.	-17	16	-1	-4	4	-124*	-89*
CCT chaperon mod	1	1	-3	2	-2	-84*	1	-1
Rango-impB inh	.	0%	3%	-2%	-7%	-4%	-2%	?
Rango dissoc inh	.	-18%	0%	-9%	?	10%	5%	41%
MmCpn inh	.	-2%	-2%	-8%	1%	0%	0%	-1%

33. COc1cccc(CN2CCCN(S(=O)(=O)c3ccc(Br)cc3)CC2)c1
34. O=S(=O)(c1ccc(Br)cc1)N1CCCN(Cc2cccc(F)c2)CC1
35. CCOC(=O)N1CCC2CC1c1cc(-c3cccc(OC)c3)ccc12 (centres undefined)
36. COc1cccc(-c2ccc3c(c2)C2CC3CCN2C(=O)c2ccc(Cl)cc2)c1 (centres undefined)
Screen / compound no.	33	34	35	36
KCNH2 3.1 block	4	-45	-15	.
KCNH2 WT inh	-88*	33	-116*	-5
CCT chaperon mod	2	0	-2	-1
Rango-impB inh	0%	-1%	0%	-2%
Rango dissoc inh	8%	-2%	4%	-8%
MmCpn inh	-2%	0%	.	.

Values by screen from the list.
Nos. 33–36 in Rango-impB inh: 0%, -1%, 0%, -2%

Some values from the entries so far.
no. 35 in Rango-impB inh has 0%
no. 36 in Rango dissoc inh has -8%
no. 34 in Rango dissoc inh has -2%
no. 33 in KCNH2 WT inh has -88*
